Assay results published in ChEMBL document CHEMBL3638554 (2015).
pKi: −log10 of the molar value. Values joined by “and” are separate entries in the source; they are usually repeats but may differ in a detail not shown here. Equal values may be shown once.

By UniProt entry, the sequences of proteins in these tests, tags left out. Where a name states a change or a piece, a line headed by the entry shows the natural chain unless it says otherwise.
UniProt Q99558: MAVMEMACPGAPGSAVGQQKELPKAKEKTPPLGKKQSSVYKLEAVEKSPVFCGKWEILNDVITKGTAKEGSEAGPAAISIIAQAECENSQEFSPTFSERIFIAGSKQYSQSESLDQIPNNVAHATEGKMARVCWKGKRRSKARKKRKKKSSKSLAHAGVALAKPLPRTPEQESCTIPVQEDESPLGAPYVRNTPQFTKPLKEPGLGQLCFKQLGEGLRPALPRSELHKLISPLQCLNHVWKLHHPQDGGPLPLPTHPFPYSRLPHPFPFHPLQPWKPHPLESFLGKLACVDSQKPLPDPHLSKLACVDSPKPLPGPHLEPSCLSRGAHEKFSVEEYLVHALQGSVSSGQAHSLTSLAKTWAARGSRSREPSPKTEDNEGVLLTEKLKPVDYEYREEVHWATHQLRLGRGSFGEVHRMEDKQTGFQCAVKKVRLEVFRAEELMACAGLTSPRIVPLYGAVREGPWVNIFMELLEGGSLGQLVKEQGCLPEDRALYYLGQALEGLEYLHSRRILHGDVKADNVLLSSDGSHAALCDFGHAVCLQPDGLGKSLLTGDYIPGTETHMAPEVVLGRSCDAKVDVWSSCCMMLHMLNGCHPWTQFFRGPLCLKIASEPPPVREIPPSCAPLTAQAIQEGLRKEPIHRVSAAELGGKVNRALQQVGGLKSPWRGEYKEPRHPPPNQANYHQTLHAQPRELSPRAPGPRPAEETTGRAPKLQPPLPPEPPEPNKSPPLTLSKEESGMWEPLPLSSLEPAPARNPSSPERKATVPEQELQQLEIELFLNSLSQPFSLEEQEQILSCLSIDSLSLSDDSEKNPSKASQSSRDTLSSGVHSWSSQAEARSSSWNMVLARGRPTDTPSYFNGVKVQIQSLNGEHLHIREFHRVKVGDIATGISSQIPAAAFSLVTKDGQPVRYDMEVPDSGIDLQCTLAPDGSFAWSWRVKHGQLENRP

Target: Mitogen-activated protein kinase kinase kinase 14 (Homo sapiens, UniProt Q99558)
Experiment: Inhibition Assay: The ability of the nuclear factor-kappa B (NF-kB)-inducing kinase (NIK) to catalyze the hydrolysis of adenosine-5'-triphosphate (ATP) was monitored using the Transcreener ADP (adenosine-5'-diphosphate) assay (BellBrook Labs). Purified NIK (0.2-1 nM) derived from a baculovirus-infected insect cell expression system was incubated with test compounds for 1-3.5 hours in 50 mM 2-[4-(2-hydroxyethyl)piperazin-1-yl]ethanesulfonic acid buffer (pH 7.2) containing 10 mM MgCl2, 2 mM dithiothreitol, 10 uM ATP, 0.01% Triton X-100, 0.1% gamma-globulins from bovine blood, 1% dimethylsulfoxide (DMSO), 12 ug/mL ADP antibody and 4 nM ADP-AlexaFluor.RTM. […] Reactions were quenched by the addition of 20 mM 2,2',2'',2'''-(ethane-1,2-diyldinitrilo)tetraacetic acid and 0.01% Brij 35. The tracer bound to the antibody was displaced by the ADP generated during the NIK reaction, which causes a decrease in fluorescence polarization that was measured by laser excitation.

SMILES	pKi
CO[C@@H]1COc2ccc(C#C[C@]3(O)CCN(C)C3=O)cc2-c2nc(C(N)=O)sc21	8.52 and 9.05
CN1CC[C@@](O)(C#Cc2ccc3c(c2)-c2nc(C(N)=O)sc2[C@](C)(O)CO3)C1=O	8.40 and 9.15
Cc1nc([C@](C)(O)C#Cc2ccc3c(c2)-c2nc(C(N)=O)sc2[C@@H](O)CO3)no1	8.00 and 7.25
Cc1nc([C@](C)(O)C#Cc2ccc3c(c2)-c2nc(C(N)=O)sc2[C@H](O)CO3)no1	8.00 and 7.25
